# Yeast mating assay B: variants of the scFv Ab-14

Data: MIT Lincoln Laboratory AlphaSeq set, Li et al. 2023, doi:10.1038/s41467-023-39022-2, as distributed in FLAb.

All variants were tested on one target, the spike HR2 peptide PDVDLGDISGINAS (SARS-CoV-2).

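These sequences belong to a second round, designed from the earlier measurements on random variants of the parent. Several design methods are mixed in this list. The assay is AlphaSeq: two haploid yeast populations carry antibody and antigen on their surface. Binding brings cells together so that they mate, and sequencing counts the barcode pairs among the diploids. Each replicate has its own calibration line, from reference interactions of the BCL2 family. Mating was done six times.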

Parent scFv Ab-14: VH joined to VL by three GGGGS repeats. Changes lie in the heavy chain CDRs alone.
VH: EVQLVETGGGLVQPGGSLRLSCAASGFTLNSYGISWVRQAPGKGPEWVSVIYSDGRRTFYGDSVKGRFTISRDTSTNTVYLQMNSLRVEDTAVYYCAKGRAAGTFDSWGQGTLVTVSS
VL: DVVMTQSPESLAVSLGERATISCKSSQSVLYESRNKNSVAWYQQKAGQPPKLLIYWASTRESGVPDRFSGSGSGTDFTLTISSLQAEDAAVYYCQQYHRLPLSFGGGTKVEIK

Each variant is given by its three heavy chain CDRs, as the data file delimits them; those of the parent are GFTLNSYGIS, VIYSDGRRTFYGDSVK, GRAAGTFDS. Numbers give log10(Kd / nM), so 0 is 1 nM and 3 is 1 µM. Smaller is tighter. A mean of the replicates is given; it leaves out those without a signal. "nd" marks a missing value. The strain was present, yet no cells mated with the target were sequenced in any replicate, which points to weak or no binding. Where one sequence has several entries in the source, the replicates are pooled. The authors averaged sequences with at least three values out of six and counted those with two or fewer as poor binders. A sequence measured in both rounds can read differently, since the two assays cover different ranges. Nonspecific signal, from three strains lacking the peptide, appeared in 1% of pairings of all heavy chain designs, centred on 2.08 (5% of these signals below 0.84); values are not corrected for it. Also given: how often the same scFv was detected with the empty control strains. The parent sequence was in this pool as ten entries: three were never detected, three once, and four in most replicates, with averages from 0.34 to 2.37.

| mean, log10 nM | replicates with signal | empty controls | CDR-H1 | CDR-H2 | CDR-H3 |
|---|---|---|---|---|---|
| 3.27 | 1 of 6 | 0 of 18 | GIDLEKYGIS | VIYADGMRASYSDAVK | GDLSGTFYI |
| -0.45 | 6 of 6 | 0 of 18 | GFDIDEYGIS | VIYADGMRQALIDAVK | GTLSGTFDA |
| 0.15 | 6 of 6 | 0 of 18 | GFSLNEYGIS | VIYSDGRRTFMGDSVK | GRTAGTFDS |
| nd | 0 of 6 | 0 of 18 | GFSLNEYGIS | VIYADGMRNFYADSVK | GLHKGFFDI |
| -0.43 | 6 of 6 | 0 of 18 | GFDLDEYGIS | VIYADGKRTAYADDVK | GNVAGTFDV |
| nd | 0 of 6 | 0 of 18 | GFWLNSYGIS | VIYADGRRTFYSDSVK | GRQAGTSDS |
| -0.41 | 6 of 6 | 1 of 18 | GFDLDEYGIS | VIYADGMRTAYADDVK | GEVAGTFDQ |
| 2.61 | 1 of 6 | 0 of 18 | GFDLNEYGIS | VIYADGRRTAYSDSVK | GGNAGIFDS |
| 1.32 | 6 of 6 | 0 of 18 | GFNLNSYGIS | VIYSDGRRTFYGDSVK | GKVAGTFDS |
| 2.68 | 1 of 6 | 1 of 18 | GFGLGEYGIS | VIYADGHRTAYSTSVK | GTIGGMFFN |
| nd | 0 of 6 | 0 of 18 | GFTLEEYGIS | VIYSDGRRTFYGDSVK | GRAAGTFIS |
| -0.13 | 6 of 6 | 0 of 18 | GFSLNSYGIS | VIYSDGRRTFYSDSVK | GRAAGTFDT |
| -0.17 | 6 of 6 | 0 of 18 | GFSLNEYGIS | VIYSDGRRTFYGDSVK | GQTAGTFDK |
| 0.70 | 6 of 6 | 0 of 18 | GFTLNEYGIS | VIYSDGRRTFYHDSVK | GRYAGTFDS |
| nd | 0 of 6 | 0 of 18 | GFSLLEYGIS | VIYSDGRRTFYGDKVK | QRSAGTFDS |
| 0.27 | 6 of 6 | 0 of 18 | GFELNEYGIS | VIYSDGRRTFYGDSVK | GRAAGTFDT |
| nd | 0 of 6 | 1 of 18 | GFTLNSYGIS | VIYSDGRRTAYGDSVK | IRYAGTFDS |
| nd | 0 of 6 | 0 of 18 | GFNLNSYGIS | VIYNDGRRTFYTDSVK | GRHAGTFDS |
| nd | 0 of 6 | 0 of 18 | LFTLNSYGIS | VIYSDGRRTFYLDSVK | GRTSGTFSW |
| 3.08 | 3 of 6 | 1 of 18 | GFDLNSYGIS | VIYSDGRRTFYGDSVK | GEAAGWFNS |
| -0.81 | 6 of 6 | 0 of 18 | GFDLNEYGIS | VIYADGMRTAYANSVK | GNVAGTFDV |
| 0.52 | 6 of 6 | 1 of 18 | GFELNDYGIS | VIYSDGRRTFYADSVK | GRAAGTFDS |
| nd | 0 of 6 | 0 of 18 | GFNLDEQGIS | VIYADGMRTVYAKNVK | GQNVGFTVF |
| -0.22 | 6 of 6 | 0 of 18 | GFDLNEYGIS | VIYADGRRTAYADSVK | GNNAGTFDV |
| -0.56 | 6 of 6 | 0 of 18 | GFDLNEYGIS | VIYADGRRTFYKDSVK | GELAGTFDQ |
| -1.10 | 6 of 6 | 0 of 18 | GFDLDEYGIS | VIYADGQRTAYTDSVK | GNNAGTFDV |
| 0.50 | 6 of 6 | 0 of 18 | GFTLNSKGIS | VIYSDGRRTFYGDSVK | GRAAGTFDS |
| -0.81 | 5 of 6 | 0 of 18 | GFDLEEYGIS | VIYADGRRTFYADKVK | GENAGTFDI |
| -0.34 | 6 of 6 | 0 of 18 | GFDLNEYGIS | VIYADGRRTFYQDSVK | GQAAGTFDQ |
| 0.08 | 4 of 6 | 0 of 18 | GFLLNDYGIS | VIYSDGRRTFYADSVK | GRAAGTFDS |
| nd | 0 of 6 | 1 of 18 | SFNLNSYGIS | VIYSDGRRTFYGDSVK | GQTAGTFDS |
| -0.13 | 6 of 6 | 1 of 18 | GFKLNEYGIS | VIYSDGRRTFYGDSVK | GRNAGTFDS |
| -0.23 | 6 of 6 | 0 of 18 | GFDLDEYGIS | VIYADGKRTAYADSVK | GEVAGTFDV |
| 0.49 | 6 of 6 | 0 of 18 | GFQLNDYGIS | VIYSDGRRTFYIDSVK | GKAAGTFDS |
| nd | 0 of 6 | 0 of 18 | GQNLNSYGIS | VIYSDGRRTSYGDSVK | GRAQGTIDS |
| nd | 0 of 6 | 0 of 18 | GETLMSYGIS | VIYSDGRRTFYGDSVK | GREAGTGDS |
| -1.28 | 6 of 6 | 0 of 18 | GFTLNEYGIS | VIYSDGRRTFYSDSVK | GRAAGTFDI |
| nd | 0 of 6 | 0 of 18 | GFTLNSYGIS | VIYSDGRRTFYRDSVK | GRAAGTFDL |
| nd | 0 of 6 | 0 of 18 | GSKLDEYGIS | VIYADGKRSFYSNAVK | GGKAGGTTV |
| 2.34 | 1 of 6 | 0 of 18 | GFTLNSYGIS | VIYSDGRRTFYADSFK | GRAAGTFDS |
| -0.27 | 6 of 6 | 1 of 18 | GFDLDEYGIS | VIYADGVRTAYADSVK | GENAGTFDQ |
| 0.01 | 6 of 6 | 1 of 18 | GFDLNEYGIS | VIYADGKRQAYADSVK | GENAGTFDV |
| nd | 0 of 6 | 0 of 18 | GFDIEEYGIS | VIYADGVRTMYADDVK | GIAKGYSLT |
| 1.42 | 4 of 6 | 0 of 18 | GFTLNKYGIS | VIYSDGRRTFYGDSVK | GRQAGTFDS |
| -0.06 | 6 of 6 | 0 of 18 | GFDLDEYGIS | VIYADGSRTAYADSVK | GNTAGTFDQ |
| 1.32 | 1 of 6 | 1 of 18 | GFDLNEYGIS | VIYADGRRTAYVDSVK | GNNAGTFDI |
| -0.84 | 5 of 6 | 0 of 18 | GFDLNSYGIS | VIYSDGRRTFYGDSVK | GWMAGTFDS |
| -0.32 | 6 of 6 | 0 of 18 | GFDLNEYGIS | VIYADGRRTFYTDSVK | GGNAGTFDA |
| nd | 0 of 6 | 0 of 18 | GFNLNSYGIS | FIYSDGQRVSYRGDVK | GRAAVTFDS |
| nd | 0 of 6 | 0 of 18 | FFTLNSYGIS | VIYADGRRTFYGDSVK | GRAAPTNKS |
| nd | 0 of 6 | 0 of 18 | GFTLNDYGIS | VIYSDGRRTFYGDSIK | GRAAATPIS |
| nd | 0 of 18 | 0 of 54 | GFTLNSYGIS | VIYSDGSRTFYGPEVK | GKAAGTDDP |
| -0.06 | 6 of 6 | 0 of 18 | GFTLESYGIS | VIYADGRRTFYGDAVK | GRAAGTFDS |
| -0.61 | 6 of 6 | 0 of 18 | GFDLNEYGIS | VIYADGRRTAYADSVK | GQNAGTFDV |
| -0.02 | 6 of 6 | 1 of 18 | GFDLNEYGIS | VIYADGMRSFYADSVK | GENAGTFDV |
| 2.33 | 1 of 6 | 1 of 18 | GFTLNDYGIS | VIYSDGRRTFYGDSVK | GSLAGTVDL |
| nd | 0 of 6 | 0 of 18 | GFTLNSYGIS | VIYSDGRRTFYADSVK | GRAAGQFDS |
| nd | 0 of 6 | 0 of 18 | EFDLQEYGIS | VIYADGKREAYKDNVK | GNGGGVFDA |

The first 7 entries again:

| CDR-H1 | CDR-H2 | CDR-H3 | mean, log10 nM | replicates with signal | empty controls |
|---|---|---|---|---|---|
| GIDLEKYGIS | VIYADGMRASYSDAVK | GDLSGTFYI | 3.27 | 1 of 6 | 0 of 18 |
| GFDIDEYGIS | VIYADGMRQALIDAVK | GTLSGTFDA | -0.45 | 6 of 6 | 0 of 18 |
| GFSLNEYGIS | VIYSDGRRTFMGDSVK | GRTAGTFDS | 0.15 | 6 of 6 | 0 of 18 |
| GFSLNEYGIS | VIYADGMRNFYADSVK | GLHKGFFDI | nd | 0 of 6 | 0 of 18 |
| GFDLDEYGIS | VIYADGKRTAYADDVK | GNVAGTFDV | -0.43 | 6 of 6 | 0 of 18 |
| GFWLNSYGIS | VIYADGRRTFYSDSVK | GRQAGTSDS | nd | 0 of 6 | 0 of 18 |
| GFDLDEYGIS | VIYADGMRTAYADDVK | GEVAGTFDQ | -0.41 | 6 of 6 | 1 of 18 |